Patent US8546452B2, “S1P3 receptor antagonist” (TOA Eiyo Ltd., priority 2005, dated 2013)

Chains of the proteins cited; added tags and fusions are not shown. Lines headed by an entry give the natural chain unless they say otherwise; changes in a name come on top.
UniProt Q99500: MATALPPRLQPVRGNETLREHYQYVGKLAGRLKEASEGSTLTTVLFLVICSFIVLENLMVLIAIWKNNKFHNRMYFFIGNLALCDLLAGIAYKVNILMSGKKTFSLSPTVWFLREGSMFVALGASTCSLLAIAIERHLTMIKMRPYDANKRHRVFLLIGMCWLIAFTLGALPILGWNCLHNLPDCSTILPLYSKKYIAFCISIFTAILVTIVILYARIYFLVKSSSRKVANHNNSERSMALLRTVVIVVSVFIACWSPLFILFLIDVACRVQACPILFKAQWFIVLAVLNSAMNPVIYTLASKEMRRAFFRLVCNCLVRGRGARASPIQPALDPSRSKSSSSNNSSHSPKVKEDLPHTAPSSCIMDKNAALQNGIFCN
UniProt P21453, whole entry: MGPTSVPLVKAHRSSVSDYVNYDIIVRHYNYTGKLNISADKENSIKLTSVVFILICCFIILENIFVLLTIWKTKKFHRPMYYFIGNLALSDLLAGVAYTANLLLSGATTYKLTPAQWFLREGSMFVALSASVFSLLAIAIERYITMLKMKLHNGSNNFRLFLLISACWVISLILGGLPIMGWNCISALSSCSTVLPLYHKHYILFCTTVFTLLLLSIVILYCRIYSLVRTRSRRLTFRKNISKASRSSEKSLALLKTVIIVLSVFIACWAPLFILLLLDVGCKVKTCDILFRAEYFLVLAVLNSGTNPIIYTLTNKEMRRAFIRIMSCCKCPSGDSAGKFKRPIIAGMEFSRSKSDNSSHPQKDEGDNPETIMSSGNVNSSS
UniProt O95136: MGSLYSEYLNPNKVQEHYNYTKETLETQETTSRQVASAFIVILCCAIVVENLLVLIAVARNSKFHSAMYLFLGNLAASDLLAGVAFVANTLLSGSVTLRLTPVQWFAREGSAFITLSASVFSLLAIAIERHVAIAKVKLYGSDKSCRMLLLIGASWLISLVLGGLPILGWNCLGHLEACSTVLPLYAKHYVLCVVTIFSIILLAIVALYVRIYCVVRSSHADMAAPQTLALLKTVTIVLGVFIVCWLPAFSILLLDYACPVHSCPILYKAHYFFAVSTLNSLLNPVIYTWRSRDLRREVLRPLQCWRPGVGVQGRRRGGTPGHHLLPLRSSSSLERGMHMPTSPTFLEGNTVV

Assays:
Format in all cases: cell-based
hS1P3 = hS1P3 (Homo sapiens, UniProt Q99500); assay: S1P receptor subtype selectivity, S1P-induced [Ca2+]i increase in CHO-K1 cells stably expressing S1P3 (Calcium3); details: CHO-K1, read-out: Suppression rate at 10 μM (%) hS1P3
Protocol: (§1) The selectivity to the S1P receptor subtype was examined in the following manner. […] Furthermore, a Calcium3 (Molecular Devices, Inc.) solution prepared in HBSS (+) buffer, which is a fluorescent Ca^2+ indicator, was added, and the cells were incubated for 60 minutes at 37° C. Then, 100 μL of a test compound solution prepared to a concentration of 2×10 μmol/L was added, and the cells were incubated for 20 minutes at 37° C. […] The indicator was prepared and used according to the instruction manual.
(§2) A solution of the test compound was prepared by dissolving each of the test compounds in DMSO to a concentration of 10 mmol/L, and then diluting the solution with an HBSS (+) buffer solution to the predetermined concentration. […] The measurement values were obtained by subtracting the maximum RFU value for the blind test from the maximum RFU values for control or each test compounds. A decrease in the measurement value for the test compound relative to the control was indicated as the suppression rate (%), from which the IC50 value was calculated.

hS1P1 = molecular target: T1, hS1P1 (Homo sapiens, UniProt P21453); assay: S1P receptor subtype selectivity, S1P-induced [Ca2+]i increase in CHO-K1 cells stably expressing S1P1 (Calcium3)
T1 construct: expressed in transfected cells
Protocol: as §1, §2

hS1P2 = molecular target: T2, hS1P2 (Homo sapiens, UniProt O95136); assay: S1P receptor subtype selectivity, S1P-induced [Ca2+]i increase in CHO-K1 cells stably expressing S1P2 (Calcium3)
T2 construct: expressed in transfected cells
Protocol: as §1, §2

SMILES | inhibition at 10 µM (hS1P3) [%] | other results
CCOC(=O)C(=NNc1ccc(Cl)cc1)Nc1cccc(F)c1 [Compound 13, ethyl 1-(4-chlorophenylhydrazono)-1-(3-fluorophenylamino)acetate] | 99 | 
CCOC(=O)C(=NNc1ccc(Cl)cc1)Nc1ccccc1 [Compound 19, ethyl 1-(4-chlorophenylhydrazono)-1-(phenylamino)acetate] | 101 | 
CCOC(=O)C(=NNc1ccc(Cl)cc1)Nc1cccc(C#N)c1 [Compound 20, ethyl 1-(4-chlorophenylhydrazono)-1-(3-cyanophenylamino)acetate] | 66.5 | 
CC(C)(C)NC(=O)C(=NNc1ccc(Cl)cc1)Nc1cccc(F)c1 [Compound 28, N-tert-butyl-[1-(4-chlorophenylhydrazono)-1-(3-fluorophenylamino)]acetamide] | 79 | 
CC(C)(C)NC(=O)C(=NNc1ccc(Cl)cc1)Nc1ccc(Cl)cc1 [Compound 29, N-tert-butyl-[1-(4-chlorophenylamino)-1-(4-chlorophenylhydrazono)]acetamide] | 90.4 | 
CC(C)(C)C(=O)C(=NNc1ccc(Cl)cc1)Nc1cccc(F)c1 [Compound 32, 1-(4-chlorophenylhydrazono)-1-(3-fluorophenylamino)-3,3-dimethyl-2-butanone] |  | inhibition at 10 µM (hS1P1; 10 μM, CHO-K1 stably expressing S1P1, S1P solution 100 nmol/L, Calcium3, read-out: Suppression rate at 10 μM (%) hS1P1): 22.4%; inhibition at 10 µM (hS1P2; 10 μM, CHO-K1 stably expressing S1P2, S1P solution 100 nmol/L, Calcium3, read-out: Suppression rate at 10 μM (%) hS1P2): -11.1%
CC(C)(C)C(=O)C(=NNc1ccc(Cl)cc1)Nc1ccc(Cl)cc1 [Compound 33, 1-(4-chlorophenylamino)-1-(4-chlorophenylhydrazono)-3,3-dimethyl-2-butanone] |  | inhibition at 10 µM (hS1P1; CHO-K1, read-out: Suppression rate at 10 μM (%) hS1P1): 29.5%; inhibition at 10 µM (hS1P2; CHO-K1, read-out: Suppression rate at 10 μM (%) hS1P2): 1.7%
CC(C)(C)C(=O)C(=NNc1cccc(Cl)c1)Nc1cccc(F)c1 [Compound 41, 1-(3-chlorophenylhydrazono)-1-(3-fluorophenylamino)-3,3-dimethyl-2-butanone] | 103 | 
CC(C)(C)C(=O)C(=NNc1cccc(Cl)c1)Nc1ccc(Cl)cc1 [Compound 42, 1-(4-chlorophenylamino)-1-(3-chlorophenylhydrazono)-3,3-dimethyl-2-butanone] | 93.8 | 
CC(C)(C)C(=O)C(=NNc1ccccc1)Nc1cccc(F)c1 [Compound 49, 1-(3-fluorophenylamino)-1-(phenylhydrazono)-3,3-dimethyl-2-butanone] | 96.6 | 
CC(C)(C)C(=O)C(=NNc1ccccc1)Nc1ccc(Cl)cc1 [Compound 50, 1-(4-chlorophenylamino)-1-(phenylhydrazono)-3,3-dimethyl-2-butanone] | 97.7 | 
CC(C)(C)C(=O)C(=NNc1ccccc1)Nc1ccc(Cl)c(Cl)c1 [Compound 52, 1-(3,4-dichlorophenylamino)-1-(phenylhydrazono)-3,3-dimethyl-2-butanone] | 101 | 
CC(C)(C)C(=O)C(=NNc1ccc(F)cc1)Nc1cccc(F)c1 [Compound 53, 1-(3-fluorophenylamino)-1-(4-fluorophenylhydrazono)-3,3-dimethyl-2-butanone] | 100 | 
COc1ccc(NC(=NNc2ccc(F)cc2)C(=O)C(C)(C)C)cc1 [Compound 57, 1-(4-fluorophenylhydrazono)-1-(4-methoxyphenylamino)-3,3-dimethyl-2-butanone] | 73.9 | 
Cc1ccc(NN=C(Nc2cccc(F)c2)C(=O)C(C)(C)C)cc1 [Compound 61, 1-(3-fluorophenylamino)-1-(4-methylphenylhydrazono)-3,3-dimethyl-2-butanone] | 95.5 | 
Cc1ccc(NN=C(Nc2ccc(Cl)cc2)C(=O)C(C)(C)C)cc1 [Compound 62, 1-(4-chlorophenylamino)-1-(4-methylphenylhydrazono)-3,3-dimethyl-2-butanone] | 95.5 | 

SMILES | inhibition at 10 µM (hS1P3) [%] | other results
Cc1ccc(NN=C(Nc2ccc(C)cc2)C(=O)C(C)(C)C)cc1 [Compound 63, 1-(4-methylphenylamino)-1-(4-methylphenylhydrazono)-3,3-dimethyl-2-butanone] | 76.5 | 
Cc1ccc(NN=C(Nc2cc(Cl)cc(Cl)c2)C(=O)C(C)(C)C)cc1 [Compound 64, 1-(3,5-dichlorophenylamino)-1-(4-methylphenylhydrazono)-3,3-dimethyl-2-butanone] | 94.6 | 
Cc1ccc(NN=C(Nc2ccc(Cl)c(Cl)c2)C(=O)C(C)(C)C)cc1 [Compound 65, 1-(3,4-dichlorophenylamino)-1-(4-methylphenylhydrazono)-3,3-dimethyl-2-butanone] | 96.3 | 
CC(C)(C)C(=O)C(=NNc1ccc(Br)cc1)Nc1ccc(Cl)cc1 [Compound 75, 1-(4-bromophenylhydrazono)-1-(4-chlorophenylamino)-3,3-dimethyl-2-butanone] | 102 | 
CC(C)(C)C(=O)C(=NNc1ccc(Br)cc1)Nc1ccc(Cl)c(Cl)c1 [Compound 80, 1-(4-bromophenylhydrazono)-1-(3,4-dichlorophenylamino)-3,3-dimethyl-2-butanone] | 101 | 
CC(C)(C)C(=O)C(=NNc1ccc(Cl)c(Cl)c1)Nc1cccc(F)c1 [Compound 104, 1-(3,4-dichlorophenylhydrazono)-1-(3-fluorophenylamino)-3,3-dimethyl-2-butanone] | 95.9 | 
C#Cc1ccc(NN=C(Nc2cccc(Cl)c2)C(=O)C(C)(C)C)cc1 [Compound 108, 1-(3-chlorophenylamino)-1-(4-ethynylphenylhydrazono)-3,3-dimethyl-2-butanone] | 88.9 | 
CC(C)(C)CC(=O)C(=NNc1ccc(Cl)cc1)Nc1cccc(F)c1 [Compound 113, 1-(4-chlorophenylhydrazono)-1-(3-fluorophenylamino)-4,4-dimethyl-2-pentanone] | 92.5 | 
CCCCC(=O)C(=NNc1ccc(Cl)cc1)Nc1ccc(Cl)cc1 [Compound 115, 1-(4-chlorophenylamino)-1-(4-chlorophenylhydrazono)-2-hexanone] | 102 | 
C#Cc1ccc(NC(=NNc2ccc(Cl)cc2)C(=O)c2ccco2)cc1 [Compound 117, 1-(4-chlorophenylhydrazono)-1-(4-ethynylphenylamino)-2-(2-furyl)-2-ethanone] | 98.6 | 
C#Cc1ccc(NN=C(Nc2cccc(F)c2)C(=O)C(C)(C)C)cc1 [Compound 131, 1-(3-fluorophenylamino)-1-(4-ethynylphenylhydrazono)-3,3-dimethyl-2-butanone] | 81.7 | 
CC(C)(C)C(=O)C(=NNc1ccc(Cl)cc1)Nc1cccc(Cl)c1 [Compound 133, 1-(3-chlorophenylamino)-1-(4-chlorophenylhydrazono)-3,3-dimethyl-2-butanone] | 91.7 | 
CCC(CC)C(=O)C(=NNc1ccc(Cl)cc1)Nc1cccc(Cl)c1 [Compound 137, 1-(3-chlorophenylamino)-1-(4-chlorophenylhydrazono)-3-ethyl-2-pentanone] | 86 | 
CC(C)(C)CC(=O)C(=NNc1ccc(Cl)cc1)Nc1ccc(Cl)cc1 [Compound 139, 1-(4-chlorophenylamino)-1-(4-chlorophenylhydrazono)-4,4-dimethyl-2-pentanone] | 82.3 | 
CC(C)(C)CC(=O)C(=NNc1ccc(Cl)cc1)Nc1cccc(Cl)c1 [Compound 140, 1-(3-chlorophenylamino)-1-(4-chlorophenylhydrazono)-4,4-dimethyl-2-pentanone] | 91.9 | 

Like-named read-outs stand apart in the source and are kept apart here.
